The values that follow come from patent US20040166508A1, “Analytical platform and detection method with the analytes to be determined in a sample as immobilized specific binding partners, optionally after fractionation of said sample” (priority 2002, published 2004).

The assay relates to p44/42 MAP kinase (Erk2 and pErk2). The assay is described as follows: Detection of total Erk2/pErk2 (p44/42 MAP kinase) in immobilized Jurkat cell lysates (antibody A4). Format: cell-based, human. The note with it: Jurkat cells treated with 10 μM for 180 min.

In the case of `CN[C@@H]1C[C@H]2O[C@@](C)([C@@H]1OC)n1c3ccccc3c3c4c(c5c6ccccc6n2c5c31)C(=O)NC4` [staurosporin, staurosporine], the “relative total content of Erk2/pErk2 in comparison with the other samples” value is recorded as “no difference”.
